Broadly, the Ki is the dissociation constant of the complex between target and ligand, obtained from inhibition or displacement. High values mean a looser hold on the target, low ones a stronger hold on the target. In general, IC50 refers to the midpoint of a concentration-inhibition curve.

Chains of the proteins cited; added tags and fusions are not shown. Residues count along the entry.
UniProt P06276, 29-602, species assumed: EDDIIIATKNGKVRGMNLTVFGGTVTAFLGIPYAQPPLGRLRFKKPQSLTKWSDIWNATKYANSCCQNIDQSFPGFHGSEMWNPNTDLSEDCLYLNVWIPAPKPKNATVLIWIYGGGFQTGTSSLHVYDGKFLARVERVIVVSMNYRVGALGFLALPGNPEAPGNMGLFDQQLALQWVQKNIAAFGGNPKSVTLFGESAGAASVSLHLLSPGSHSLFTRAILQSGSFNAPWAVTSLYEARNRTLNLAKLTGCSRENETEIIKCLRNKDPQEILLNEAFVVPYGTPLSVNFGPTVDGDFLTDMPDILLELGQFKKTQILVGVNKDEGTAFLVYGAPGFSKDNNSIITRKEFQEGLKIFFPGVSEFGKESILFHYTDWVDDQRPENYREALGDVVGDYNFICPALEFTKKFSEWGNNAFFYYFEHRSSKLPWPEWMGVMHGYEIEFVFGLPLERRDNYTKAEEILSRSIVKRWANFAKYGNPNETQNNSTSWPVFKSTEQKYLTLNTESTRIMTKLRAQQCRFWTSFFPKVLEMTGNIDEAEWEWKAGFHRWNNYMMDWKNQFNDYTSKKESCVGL

This assay addresses BCHE (Homo sapiens (Human), UniProt P06276). Kind of assay: biochemical. The protocol: The compounds referred to herein have BCHE inhibitory activity. To determine the inhibitory values, enzymes were incubated for 2 hours in the presence of varying concentrations of compound prior to activity measurements. Activity is then measured colorimetrically upon addition of substrate and Ellman's reagent.
The compound `C=P(OCCCC)(OCCCC)SCCCSP(=O)(OCCCC)OCCCC` [Compound 69, O,O,O′,O′-tetrabutyl S,S′-(propane-1,3-diyl) Bis(phosphorothioate)] had a Ki of 0.21 µM.

`CCCCOP(=O)(OCC)Oc1ccccc1` (racemic) [Compound 99, (±)-n-Butyl ethyl phenyl phosphate]: the affinity, expressed as Ki, was 10000 µM.

The compound `C=P(OCCCC)(OCCCC)SCCCCCCCSP(=O)(OCCCC)OCCCC` [Compound 73, O,O,O′,O′-tetrabutyl S,S′-(heptane-1,7-diyl) Bis(phosphorothioate)] gave a Ki of 0.34 µM.

In the case of `C=P(OCCCC)(OCCCC)SCCCCCSP(=O)(OCCCC)OCCCC` [Compound 71, O,O,O′,O′-tetrabutyl S,S′-(pentane-1,5-diyl) Bis(phosphorothioate)], the affinity, expressed as Ki, was 0.24 µM.

`CCCOP(=O)(OCCC)Oc1ccccc1` [Compound 95, Di-n-propyl phenyl phosphate]: the Ki was 80 µM.

As for `CCCCOP(=O)(Cc1ccccc1)OCCCC` [Compound 91, Di-n-butyl benzylphosphonate], it took 66 µM to reach half-maximal inhibition (IC50).

Turning to `C=P(OCCCC)(OCCCC)SCCCCCCSP(=O)(OCCCC)OCCCC` [Compound 72, O,O,O′,O′-tetrabutyl S,S′-(hexane-1,6-diyl) Bis(phosphorothioate)], affinity was put at a Ki of 0.25 µM.

Turning to `CCCCOP(=O)(Cc1ccc(C)cc1)OCCCC` [Compound 85, Di-n-butyl 4-methylbenzylphosphonate], it took 80 µM to reach half-maximal inhibition (IC50).

Turning to `CCCCOP(=O)(OCCCC)Oc1ccccc1` [Compound 96, Di-n-butyl phenyl phosphate], the Ki is 43 µM.
